Assay results from patent US6337064B1, “Manganese chelates with high relaxivity in serum” (Dibra S.p.A., priority 1998, dated 2002).

Tests used:
[1] = Relaxivity in aqueous solution; type: physicochemical
Experimental: (§1) The relaxivity of the compounds of the invention was measured both in saline solution and in human serum, reconstituted from Seronorm^(R) Human (Nycomed Pharma), lyophilized human serum, and the resulting data are summarized in TABLES 1 and 2.
(§2) TABLE 1 reports the relativity values measured for some compounds of the invention at 20 MHz; the other experimental conditions used are detailed following the table itself.
(§3) TABLE 2 comprises the results obtained from tests carried out under the same experimental conditions as above and in which r1 and r2 relaxivities were measured in serum and in aqueous solution at lower fields, precisely at 5 and 10 MHz. Said data evidence the significant increase in relaxivity obtained in serum already at 5 MHz and are indicative of the potential advantageous use of the compounds of the invention in M.R.I. diagnostic imaging at low fields.

[2] = Relaxivity in human serum reconstituted from Seronorm Human; type: physicochemical
Experimental: as §1, §2, §3

[3] = 5 MHz, same experimental conditions as Table 1
[4] = 10 MHz, same experimental conditions as Table 1

Manganese complex of [[S—(R*,R*)]-α,α′-[1,2-ethane-diyl-bis[(carboxymethyl)imino]]bis(cyclohexanepropanoic)acid salified with 1-deoxy-1-(methylamino)-D-glucitol (1:2) [Example 3]
Relaxivity r1, aqueous solution ([1]; 0.15 M NaCl aqueous solution, 20 MHz, 39° C., pH 7.3): 3.52^(6) mM^−1 s^−1
Relaxivity r1 5 MHz, aqueous solution [1, 3]: 4.7 mM⁻¹ s⁻¹
Relaxivity r1 10 MHz, aqueous solution [1, 4]: 4.3 mM⁻¹ s⁻¹
Relaxivity r1 5 MHz, Seronorm [2, 3]: 26.2 mM⁻¹ s⁻¹
Relaxivity r1 10 MHz, Seronorm [2, 4]: 35.1 mM⁻¹ s⁻¹
Relaxivity r1, Seronorm Human ([2]; calculated between 0 and 1 mM, 20 MHz, 39° C.): 43^(7) mM^−1 s^−1
